Measured values: patent US8653263B2 (Janssen Pharmaceutica, priority 2009, dated 2014)
Like-named read-outs stand apart in the source and are kept apart here.

Amino acid sequences for entries named in this document (tags omitted).
UniProt O43614, whole entry: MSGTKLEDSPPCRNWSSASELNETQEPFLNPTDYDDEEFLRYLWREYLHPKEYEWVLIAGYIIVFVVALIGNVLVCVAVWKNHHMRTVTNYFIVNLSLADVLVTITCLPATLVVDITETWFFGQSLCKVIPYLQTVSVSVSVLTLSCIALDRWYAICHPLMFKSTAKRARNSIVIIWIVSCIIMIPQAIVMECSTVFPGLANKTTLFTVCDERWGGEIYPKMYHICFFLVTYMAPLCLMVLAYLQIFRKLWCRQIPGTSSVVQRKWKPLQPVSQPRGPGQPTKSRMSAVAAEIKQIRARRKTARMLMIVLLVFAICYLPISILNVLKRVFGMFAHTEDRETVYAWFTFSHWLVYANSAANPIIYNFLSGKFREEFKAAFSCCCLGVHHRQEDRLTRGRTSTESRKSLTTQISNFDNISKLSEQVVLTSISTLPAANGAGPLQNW

Target: human orexin-2 receptor (Homo sapiens (Human), UniProt O43614)
Test: Human orexin 2 receptor radioligand binding ([3H]-EMPA competition)
[1] = read-out: OR 2 Ki, HEK293 cells stably expressing human orexin-2 receptor, [3H]-EMPA 5 nM final, apparent Ki=IC50/(1+C/Kd), Kd=2 nM

Compound | Ki [1] [nM] | also measured
Cc1nc(N2CC3CN(C(=O)c4cccnc4-c4ccn[nH]4)CC3C2)nc(C)c1C (stereo not shown) [Example 251, (2-(1H-Pyrazol-5-yl)pyridin-3-yl)(5-(4,5,6-trimethylpyrimidin-2-yl)hexahydropyrrolo[3,4-c]pyrrol-2(1H)-yl)methanone] | 25 | 
Cc1cc(C)nc(N2CC3CN(C(=O)c4ncccc4-n4nccn4)CC3C2)n1 (stereo not shown) [Example 332, [5-(4,6-Dimethyl-pyrimidin-2-yl)-hexahydro-pyrrolo[3,4-c]pyrrol-2-yl]-(3-[1,2,3]triazol-2-yl-pyridin-2-yl)-methanone] | 114 | 
Cc1cc(C)nc(N2CC3CN(C(=O)c4c(C)cccc4-n4nccn4)CC3C2)n1 (stereo not shown) [Example 259, (5-(4,6-Dimethylpyrimidin-2-yl)hexahydropyrrolo[3,4-c]pyrrol-2(1H)-yl)(2-methyl-6-(2H-1,2,3-triazol-2-yl)phenyl)methanone] | 8 | 
Cc1nc(N2CC3CN(C(=O)c4c(F)cccc4-n4nccn4)CC3C2)ncc1Cl (stereo not shown) [Example 316, 2-(5-Chloro-4-methylpyrimidin-2-yl)-5-{[2-fluoro-6-(2H-1,2,3-triazol-2-yl)phenyl]carbonyl}octahydropyrrolo[3,4-c]pyrrole] | 10 | 
COc1cccc(C(=O)N2CC3CN(c4nc(C)cc(C)n4)CC3C2)c1-n1nccn1 (stereo not shown) [Example 285, 2-(4,6-Dimethylpyrimidin-2-yl)-5-{[3-methoxy-2-(2H-1,2,3-triazol-2-yl)phenyl]carbonyl}octahydropyrrolo[3,4-c]pyrrole] | 1500 | 
Cc1cc(C(C)(C)C)nc(N2CC3CN(C(=O)c4c(F)cccc4-n4nccn4)CC3C2)n1 (stereo not shown) [Example 301, 2-(4-tert-Butyl-6-methylpyrimidin-2-yl)-5-{[2-fluoro-6-(2H-1,2,3-triazol-2-yl)phenyl]carbonyl}octahydropyrrolo[3,4-c]pyrrole] | 36 | 
Cc1cc(O)nc(N2CC3CN(C(=O)c4c(F)cccc4-n4nccn4)CC3C2)n1 (stereo not shown) [Example 281, 2-[5-{[2-Fluoro-6-(2H-1,2,3-triazol-2-yl)phenyl]carbonyl}hexahydropyrrolo[3,4-c]pyrrol-2(1H)-yl]-6-methylpyrimidin-4-ol] | 9000 | 
Cc1nc(N2CC3CN(C(=O)c4c(F)cccc4-n4nccn4)CC3C2)nc(C)c1C (stereo not shown) [Example 294, 2-{[2-Fluoro-6-(2H-1,2,3-triazol-2-yl)phenyl]carbonyl}-5-(4,5,6-trimethylpyrimidin-2-yl)octahydropyrrolo[3,4-c]pyrrole] | 4 | 
Cc1cc(C)nc(N2CC3CN(C(=O)c4ccc(C)nc4-n4nccn4)CC3C2)n1 (stereo not shown) [Example 275, [5-(4,6-Dimethyl-pyrimidin-2-yl)-hexahydro-pyrrolo[3,4-c]pyrrol-2-yl]-(6-methyl-2-[1,2,3]triazol-2-yl-pyridin-3-yl)-methanone] | 487 | 
Cc1cc(C)nc(N2CC3CN(C(=O)c4cccnc4-n4nccn4)CC3C2)n1 (stereo not shown) [Example 238, (2-(2H-1,2,3-Triazol-2-yl)pyridin-3-yl)(5-(4,6-dimethylpyrimidin-2-yl)hexahydropyrrolo[3,4-c]pyrrol-2(1H)-yl)methanone] | 243 | 
Cc1cc(C)nc(N2CC3CN(C(=O)c4cccc(C)c4-n4nccn4)CC3C2)n1 (stereo not shown) [Example 260, (5-(4,6-Dimethylpyrimidin-2-yl)hexahydropyrrolo[3,4-c]pyrrol-2(1H)-yl)(3-methyl-2-(2H-1,2,3-triazol-2-yl)phenyl)methanone] | 90 | 
Cc1cc(C)nc(N2CC3CN(C(=O)c4ccc5ccccc5c4-n4nccn4)CC3C2)n1 (stereo not shown) [Example 331, [5-(4,6-Dimethyl-pyrimidin-2-yl)-hexahydro-pyrrolo[3,4-c]pyrrol-2-yl]-(1-[1,2,3]triazol-2-yl-naphthalen-2-yl)-methanone] | 81 | 
Cc1nc(N2CC3CN(C(=O)c4c(F)cccc4-n4nccn4)CC3C2)ncc1F (stereo not shown) [Example 293, 2-(5-Fluoro-4-methylpyrimidin-2-yl)-5-{[2-fluoro-6-(2H-1,2,3-triazol-2-yl)phenyl]carbonyl}octahydropyrrolo[3,4-c]pyrrole] | 19 | 
Cc1cc(C2CC2)nc(N2CC3CN(C(=O)c4c(F)cccc4-n4nccn4)CC3C2)n1 (stereo not shown) [Example 302, 2-(4-Cyclopropyl-6-methylpyrimidin-2-yl)-5-{[2-fluoro-6-(2H-1,2,3-triazol-2-yl)phenyl]carbonyl}octahydropyrrolo[3,4-c]pyrrole] | 17 | 
O=C(c1c(F)cccc1-n1nccn1)N1CC2CN(c3nc(C(F)(F)F)cc(C(F)(F)F)n3)CC2C1 (stereo not shown) [Example 280, 2-[4,6-Bis(trifluoromethyl)pyrimidin-2-yl]-5-{[2-fluoro-6-(2H-1,2,3-triazol-2-yl)phenyl]carbonyl}octahydropyrrolo[3,4-c]pyrrole] | 41 | 
Cc1cnc(N2CC3CN(C(=O)c4c(F)cccc4-n4nccn4)CC3C2)nc1C (stereo not shown) [Example 295, 2-(4,5-Dimethylpyrimidin-2-yl)-5-{[2-fluoro-6-(2H-1,2,3-triazol-2-yl)phenyl]carbonyl}octahydropyrrolo[3,4-c]pyrrole] | 24 | 
CCc1cc(C)nc(N2CC3CN(C(=O)c4c(F)cccc4-n4nccn4)CC3C2)n1 (stereo not shown) [Example 297, 2-(4-Ethyl-6-methylpyrimidin-2-yl)-5-{[2-fluoro-6-(2H-1,2,3-triazol-2-yl)phenyl]carbonyl}octahydropyrrolo[3,4-c]pyrrole] | 6 | 
Cc1cc(C)nc(N2CC3CN(C(=O)c4cccc(F)c4-c4nc(C)no4)CC3C2)n1 (stereo not shown) [Example 314, 2-(4,6-Dimethylpyrimidin-2-yl)-5-{[3-fluoro-2-(3-methyl-1,2,4-oxadiazol-5-yl)phenyl]carbonyl}octahydropyrrolo[3,4-c]pyrrole] |  | Ki: 13 nM
[2H]c1c(C([2H])([2H])[2H])nc(N2CC3CN(C(=O)c4cccc(F)c4-c4nc(C)no4)CC3C2)nc1C([2H])([2H])[2H] (stereo not shown) [Example 383, 2-{4,6-Bis[(^2H3)methyl](^2H)pyrimidin-2-yl}-5-{[3-fluoro-2-(3-methyl-1,2,4-oxadiazol-5-yl)phenyl]carbonyl}octahydropyrrolo[3,4-c]pyrrole] |  | Ki: 13 nM
Cc1cc(C)nc(N2CC3CN(C(=O)c4cc(I)ccc4-n4nccn4)CC3C2)n1 (stereo not shown) [Example 105, 2-(4,6-Dimethylpyrimidin-2-yl)-5-{[5-iodo-2-(2H-1,2,3-triazol-2-yl)phenyl]carbonyl}octahydropyrrolo[3,4-c]pyrrole] | 20 | 
O=C(c1c(F)cccc1-n1nccn1)N1CC2CN(c3ncc([N+](=O)[O-])cn3)CC2C1 (stereo not shown) [Example 261, (2-Fluoro-6-(2H-1,2,3-triazol-2-yl)phenyl)(5-(5-nitropyrimidin-2-yl)hexahydropyrrolo[3,4-c]pyrrol-2(1H)-yl)methanone] | 477 | 
Cc1cc(C)nc(N2CC3CN(C(=O)c4ccc(F)cc4-n4nccn4)CC3C2)n1 (stereo not shown) [Example 118, 2-(4,6-Dimethylpyrimidin-2-yl)-5-{[4-fluoro-2-(2H-1,2,3-triazol-2-yl)phenyl]carbonyl}octahydropyrrolo[3,4-c]pyrrole] |  | Ki (read-out: OR 2 Ki): 19 nM
COc1cc(C(=O)N2CC3CN(c4nc(C)cc(C)n4)CC3C2)c(-n2nccn2)cc1OC (stereo not shown) [Example 342, (4,5-Dimethoxy-2-[1,2,3]triazol-2-yl-phenyl)-[5-(4,6-dimethyl-pyrimidin-2-yl)-hexahydro-pyrrolo[3,4-c]pyrrol-2-yl]-methanone] | 9490 | 
COc1cc(C)nc(N2CC3CN(C(=O)c4c(F)cccc4-n4nccn4)CC3C2)n1 (stereo not shown) [Example 296, 2-{[2-Fluoro-6-(2H-1,2,3-triazol-2-yl)phenyl]carbonyl}-5-(4-methoxy-6-methylpyrimidin-2-yl)octahydropyrrolo[3,4-c]pyrrole] | 9 | 
COc1cc(OC)nc(N2CC3CN(C(=O)c4c(F)cccc4-n4nccn4)CC3C2)n1 (stereo not shown) [Example 258, (5-(4,6-Dimethoxypyrimidin-2-yl)hexahydropyrrolo[3,4-c]pyrrol-2(1H)-yl)(2-fluoro-6-(2H-1,2,3-triazol-2-yl)phenyl)methanone] | 46 | 
